From patent US20210070748A1, “INHIBITORS OF BRUTONS TYROSINE KINASE” (Pharmacyclics LLC, priority 2015, published 2021)
pIC50: −log10 of the molar value.

Sequences of proteins named here, by UniProt entry; tags and fusion partners are left off. Residues count along the entry.
UniProt P42680, whole entry: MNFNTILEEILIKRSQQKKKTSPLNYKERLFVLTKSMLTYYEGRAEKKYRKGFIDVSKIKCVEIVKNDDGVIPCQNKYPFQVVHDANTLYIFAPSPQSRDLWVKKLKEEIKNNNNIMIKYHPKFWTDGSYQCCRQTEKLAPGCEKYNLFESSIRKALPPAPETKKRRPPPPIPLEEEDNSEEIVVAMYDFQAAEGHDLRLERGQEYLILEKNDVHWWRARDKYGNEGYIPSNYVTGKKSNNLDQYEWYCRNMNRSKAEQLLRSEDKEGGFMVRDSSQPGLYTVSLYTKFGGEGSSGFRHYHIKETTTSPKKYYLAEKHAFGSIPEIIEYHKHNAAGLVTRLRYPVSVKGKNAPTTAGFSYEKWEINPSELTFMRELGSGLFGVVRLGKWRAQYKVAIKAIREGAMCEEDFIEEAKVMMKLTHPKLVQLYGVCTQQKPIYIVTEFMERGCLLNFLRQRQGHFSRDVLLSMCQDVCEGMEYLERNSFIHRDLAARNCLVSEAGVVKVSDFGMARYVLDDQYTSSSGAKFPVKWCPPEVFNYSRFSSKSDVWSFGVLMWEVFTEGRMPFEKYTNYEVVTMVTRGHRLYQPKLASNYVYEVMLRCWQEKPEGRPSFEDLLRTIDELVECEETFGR
UniProt Q06187, whole entry: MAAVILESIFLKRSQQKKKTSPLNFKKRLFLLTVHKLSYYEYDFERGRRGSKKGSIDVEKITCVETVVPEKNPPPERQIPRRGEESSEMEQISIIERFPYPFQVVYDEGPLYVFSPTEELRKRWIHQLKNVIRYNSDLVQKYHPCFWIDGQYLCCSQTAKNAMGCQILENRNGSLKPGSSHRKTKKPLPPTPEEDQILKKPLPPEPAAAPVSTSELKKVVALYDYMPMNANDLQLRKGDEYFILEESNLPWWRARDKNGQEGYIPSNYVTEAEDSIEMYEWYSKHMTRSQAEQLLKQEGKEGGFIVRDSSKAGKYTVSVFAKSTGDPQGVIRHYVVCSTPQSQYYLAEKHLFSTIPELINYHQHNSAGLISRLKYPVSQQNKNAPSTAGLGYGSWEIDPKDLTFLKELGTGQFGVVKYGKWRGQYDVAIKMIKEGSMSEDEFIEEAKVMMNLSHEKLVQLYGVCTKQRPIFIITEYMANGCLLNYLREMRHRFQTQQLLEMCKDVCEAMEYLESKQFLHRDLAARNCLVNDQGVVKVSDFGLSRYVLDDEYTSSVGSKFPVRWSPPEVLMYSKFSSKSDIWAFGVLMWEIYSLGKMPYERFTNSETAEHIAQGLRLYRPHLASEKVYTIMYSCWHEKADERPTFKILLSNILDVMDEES
UniProt P06239, whole entry: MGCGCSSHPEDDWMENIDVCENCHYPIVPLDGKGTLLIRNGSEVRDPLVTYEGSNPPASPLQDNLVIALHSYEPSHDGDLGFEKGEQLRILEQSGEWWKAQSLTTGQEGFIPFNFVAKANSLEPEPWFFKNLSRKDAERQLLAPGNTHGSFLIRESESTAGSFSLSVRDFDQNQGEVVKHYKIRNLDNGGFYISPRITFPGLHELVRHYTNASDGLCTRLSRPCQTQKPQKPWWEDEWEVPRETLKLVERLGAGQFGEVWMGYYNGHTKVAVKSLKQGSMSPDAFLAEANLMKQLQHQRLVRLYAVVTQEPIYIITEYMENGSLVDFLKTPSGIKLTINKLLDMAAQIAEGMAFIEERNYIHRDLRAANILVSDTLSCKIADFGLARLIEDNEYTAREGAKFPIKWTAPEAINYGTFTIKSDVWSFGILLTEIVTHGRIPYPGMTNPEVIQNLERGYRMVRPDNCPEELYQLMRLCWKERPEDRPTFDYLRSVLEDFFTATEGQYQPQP
UniProt P00533, 25-1210 limits assumed: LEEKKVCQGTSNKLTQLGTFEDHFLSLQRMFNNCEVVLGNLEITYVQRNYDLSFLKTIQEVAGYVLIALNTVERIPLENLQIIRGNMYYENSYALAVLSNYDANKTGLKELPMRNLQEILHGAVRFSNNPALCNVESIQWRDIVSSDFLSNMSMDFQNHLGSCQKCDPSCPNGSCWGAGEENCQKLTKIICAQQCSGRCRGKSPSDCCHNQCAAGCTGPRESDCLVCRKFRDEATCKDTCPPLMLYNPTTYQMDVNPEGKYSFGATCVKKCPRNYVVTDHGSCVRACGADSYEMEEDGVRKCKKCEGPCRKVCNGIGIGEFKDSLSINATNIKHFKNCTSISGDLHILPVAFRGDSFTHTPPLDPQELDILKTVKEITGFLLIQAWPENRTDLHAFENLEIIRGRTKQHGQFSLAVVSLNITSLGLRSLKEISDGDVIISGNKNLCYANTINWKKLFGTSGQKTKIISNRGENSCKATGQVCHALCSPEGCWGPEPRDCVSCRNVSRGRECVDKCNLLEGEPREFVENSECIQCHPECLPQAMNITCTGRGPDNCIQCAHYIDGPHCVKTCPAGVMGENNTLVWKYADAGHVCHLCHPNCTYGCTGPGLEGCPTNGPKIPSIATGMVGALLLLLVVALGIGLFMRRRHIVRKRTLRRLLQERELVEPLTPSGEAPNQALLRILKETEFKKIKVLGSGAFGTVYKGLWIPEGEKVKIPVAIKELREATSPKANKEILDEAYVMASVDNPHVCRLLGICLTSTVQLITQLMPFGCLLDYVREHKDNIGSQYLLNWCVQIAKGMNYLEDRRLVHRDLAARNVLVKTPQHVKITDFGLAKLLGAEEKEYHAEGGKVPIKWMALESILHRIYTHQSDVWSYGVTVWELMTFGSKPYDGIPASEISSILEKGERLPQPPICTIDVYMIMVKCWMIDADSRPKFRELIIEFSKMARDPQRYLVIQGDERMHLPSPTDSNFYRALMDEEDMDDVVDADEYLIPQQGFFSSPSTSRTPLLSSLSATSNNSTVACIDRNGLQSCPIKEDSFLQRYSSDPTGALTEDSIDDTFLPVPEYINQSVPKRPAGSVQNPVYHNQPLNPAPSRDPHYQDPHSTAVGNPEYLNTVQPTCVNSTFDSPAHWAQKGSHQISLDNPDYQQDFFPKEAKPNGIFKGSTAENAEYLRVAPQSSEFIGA
UniProt P12931, whole entry: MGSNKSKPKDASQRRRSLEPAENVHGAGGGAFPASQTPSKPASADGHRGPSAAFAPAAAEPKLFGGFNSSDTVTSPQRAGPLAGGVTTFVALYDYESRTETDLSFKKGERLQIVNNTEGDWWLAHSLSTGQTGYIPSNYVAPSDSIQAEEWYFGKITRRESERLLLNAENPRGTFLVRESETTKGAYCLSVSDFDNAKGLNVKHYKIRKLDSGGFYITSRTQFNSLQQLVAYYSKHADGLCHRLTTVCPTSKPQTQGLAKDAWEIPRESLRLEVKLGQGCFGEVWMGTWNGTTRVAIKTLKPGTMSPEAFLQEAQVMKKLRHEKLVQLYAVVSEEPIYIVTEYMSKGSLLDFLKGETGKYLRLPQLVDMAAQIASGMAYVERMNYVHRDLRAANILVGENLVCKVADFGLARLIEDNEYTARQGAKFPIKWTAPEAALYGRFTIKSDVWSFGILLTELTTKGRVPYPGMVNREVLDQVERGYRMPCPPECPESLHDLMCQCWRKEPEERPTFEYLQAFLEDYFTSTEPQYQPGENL
UniProt P52333, whole entry: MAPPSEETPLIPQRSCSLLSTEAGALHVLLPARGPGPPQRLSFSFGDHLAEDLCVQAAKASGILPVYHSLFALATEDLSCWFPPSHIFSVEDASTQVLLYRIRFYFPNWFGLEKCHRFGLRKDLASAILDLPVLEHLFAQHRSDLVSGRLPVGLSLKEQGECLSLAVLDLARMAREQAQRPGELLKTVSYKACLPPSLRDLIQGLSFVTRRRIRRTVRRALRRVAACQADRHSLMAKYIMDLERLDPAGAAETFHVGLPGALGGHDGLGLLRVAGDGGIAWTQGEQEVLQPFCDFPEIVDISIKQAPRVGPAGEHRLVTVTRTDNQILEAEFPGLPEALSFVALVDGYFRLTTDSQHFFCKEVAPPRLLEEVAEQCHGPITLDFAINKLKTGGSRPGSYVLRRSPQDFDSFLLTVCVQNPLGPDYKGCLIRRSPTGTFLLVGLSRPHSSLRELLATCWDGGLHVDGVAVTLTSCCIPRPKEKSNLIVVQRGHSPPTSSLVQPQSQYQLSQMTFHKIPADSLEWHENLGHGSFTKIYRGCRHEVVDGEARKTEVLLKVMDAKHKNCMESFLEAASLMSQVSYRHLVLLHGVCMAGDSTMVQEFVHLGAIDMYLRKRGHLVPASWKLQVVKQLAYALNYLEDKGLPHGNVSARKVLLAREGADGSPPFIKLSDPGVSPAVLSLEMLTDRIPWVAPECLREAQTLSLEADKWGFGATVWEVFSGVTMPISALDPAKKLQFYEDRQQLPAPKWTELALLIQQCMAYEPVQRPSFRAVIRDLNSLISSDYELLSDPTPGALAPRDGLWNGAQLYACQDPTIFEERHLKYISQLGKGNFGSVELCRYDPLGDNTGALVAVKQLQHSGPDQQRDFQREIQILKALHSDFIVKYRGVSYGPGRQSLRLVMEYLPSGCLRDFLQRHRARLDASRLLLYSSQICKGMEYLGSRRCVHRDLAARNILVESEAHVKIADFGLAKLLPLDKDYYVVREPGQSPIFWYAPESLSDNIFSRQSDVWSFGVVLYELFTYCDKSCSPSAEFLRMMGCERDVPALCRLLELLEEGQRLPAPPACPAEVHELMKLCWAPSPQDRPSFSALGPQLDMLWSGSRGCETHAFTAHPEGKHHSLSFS
UniProt Q08881, whole entry: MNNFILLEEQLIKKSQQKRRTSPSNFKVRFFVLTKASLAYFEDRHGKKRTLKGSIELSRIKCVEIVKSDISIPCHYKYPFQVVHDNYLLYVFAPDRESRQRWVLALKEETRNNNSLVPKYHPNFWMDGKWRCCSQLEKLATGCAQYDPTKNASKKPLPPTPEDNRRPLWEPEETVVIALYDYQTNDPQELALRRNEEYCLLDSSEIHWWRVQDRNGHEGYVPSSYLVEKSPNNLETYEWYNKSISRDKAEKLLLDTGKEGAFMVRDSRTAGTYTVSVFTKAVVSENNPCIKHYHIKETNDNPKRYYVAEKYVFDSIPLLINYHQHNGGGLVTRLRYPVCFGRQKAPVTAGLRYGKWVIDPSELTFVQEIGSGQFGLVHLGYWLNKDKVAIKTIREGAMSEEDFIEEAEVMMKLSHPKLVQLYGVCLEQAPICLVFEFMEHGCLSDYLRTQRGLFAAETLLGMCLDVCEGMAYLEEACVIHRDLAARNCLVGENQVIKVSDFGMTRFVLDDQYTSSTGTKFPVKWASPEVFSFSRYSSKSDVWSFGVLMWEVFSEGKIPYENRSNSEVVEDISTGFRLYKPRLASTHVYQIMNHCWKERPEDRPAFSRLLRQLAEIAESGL

Columns and labels:
Assay type in all cases: biochemical
TEC = TEC (Homo sapiens, UniProt P42680); assay: Inhibition of a panel of kinases, in vitro HotSpot kinase assay: TEC; conditions: read-out: IC50 TEC; D-compounds panel data; 1 μM ATP
Protocol: (§1) The degree of inhibition of a panel of kinases is determined using the in vitro HotSpot kinase assay (purified enzymes, ^33P-ATP, an appropriate substrate and 1 μM ATP).

BTK-WT = BTK-WT (Homo sapiens, UniProt Q06187); assay: Btk in vitro inhibitory activity (one of Method A TR-FRET, Method B electrophoretic mobility shift, Method C radiometric filter binding); conditions: read-out: IC50 BTK-WT; D-compounds panel data
LCK = LCK (Homo sapiens, UniProt P06239); assay: Inhibition of a panel of kinases, in vitro HotSpot kinase assay: LCK; conditions: read-out: IC50 LCK; D-compounds panel data; 1 μM ATP
EGFR = EGFR (Homo sapiens, UniProt P00533); assay: Inhibition of a panel of kinases, in vitro HotSpot kinase assay: EGFR; conditions: read-out: IC50 EGFR; D-compounds panel data; 1 μM ATP
Protocol: as §1

SRC = SRC (Homo sapiens, UniProt P12931); assay: Inhibition of a panel of kinases, in vitro HotSpot kinase assay: SRC; conditions: read-out: IC50 SRC; D-compounds panel data; 1 μM ATP
Protocol: as §1

JAK3 = JAK3 (Homo sapiens, UniProt P52333); assay: Inhibition of a panel of kinases, in vitro HotSpot kinase assay: JAK3; conditions: read-out: IC50 JAK3; D-compounds panel data; 1 μM ATP
ITK = ITK (Homo sapiens, UniProt Q08881); assay: Inhibition of a panel of kinases, in vitro HotSpot kinase assay: ITK; conditions: read-out: IC50 ITK; D-compounds panel data; 1 μM ATP
Protocol: as §1

SMILES	pIC50 (TEC)	pIC50 (BTK-WT)	pIC50 (LCK)	pIC50 (EGFR)	pIC50 (SRC)	pIC50 (JAK3)	pIC50 (ITK)
Cn1cc(Nc2nc(N3C[C@H](CO)C[C@@H](NC(=O)c4ccc(C5CC5)cc4)C3)cnc2C(N)=O)cn1 (relative stereo)	6.00 to 7.00	7.00 to 8.00	< 5.00	< 5.00	< 5.00	< 5.00	< 5.00
C[C@@H]1[C@H](NC(=O)c2ccc(C3CC3)cc2F)CCCN1c1cnc(C(N)=O)c(Nc2ccc(C(=O)N3CCN(C)CC3)cc2)n1 [Example A-122, 5-[(2R,3R)-3-(4-cyclopropyl-2-fluorobenzamido)-2-methylpiperidin-1-yl]-3-{[4-(4-methylpiperazine-1-carbonyl)phenyl]amino}pyr-azine-2-carboxamide]	7.00 to 8.00	> 8.00	6.00 to 7.00	6.00 to 7.00	6.00 to 7.00	6.00 to 7.00	6.00 to 7.00
